{
  "sequences": {"note": "By UniProt entry, the sequences of proteins in these tests, tags left out.", "UniProt P0DMS8, whole entry": "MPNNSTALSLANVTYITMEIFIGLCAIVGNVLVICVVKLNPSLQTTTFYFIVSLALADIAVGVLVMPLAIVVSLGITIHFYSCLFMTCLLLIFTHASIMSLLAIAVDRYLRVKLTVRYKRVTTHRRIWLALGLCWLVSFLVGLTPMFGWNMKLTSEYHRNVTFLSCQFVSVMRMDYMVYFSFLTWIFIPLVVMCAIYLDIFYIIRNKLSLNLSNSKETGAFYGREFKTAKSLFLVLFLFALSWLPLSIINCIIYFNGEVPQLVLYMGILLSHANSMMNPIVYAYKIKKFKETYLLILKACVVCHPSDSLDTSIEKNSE"},
  "source": "patent US20160158267A1",
  "about": "“METHODS OF PREVENTING, REDUCING OR TREATING MACULAR DEGENERATION” (Inotek Pharmaceuticals Corporation, priority 2014, published 2016)",
  "target": "human adenosine A3 receptor (Homo sapiens, UniProt P0DMS8)",
  "assay": "Inhibition of forskolin-stimulated adenylyl cyclase via A3 receptor, CHO cell membranes",
  "assay_type": "biochemical",
  "method": "The A1 and A3 receptor-mediated inhibition of forskolin-stimulated adenylyl cyclase activity was tested in membranes prepared from CHO cells stably transfected with the human A1 and A3 adenosine receptors. The A2A and A2B receptor-mediated stimulation of basal cyclase activity was tested in membranes prepared from CHO cells stably transfected with the human A2A and A3 adenosine receptors.",
  "data": [
    {"smiles": "O=[N+]([O-])OC[C@H]1O[C@@H](n2cnc3c(NC4CCCC4)nc(Cl)nc32)[C@H](O)[C@@H]1O", "note": "[Compound B, ((2R,3S,4R,5R)-5-(2-chloro-6-(cyclopentylamino)-9H-purin-9-yl)-3,4-dihydroxytetrahydrofuran-2-yl)methyl nitrate]", "values": [
      {"measurement": "EC50", "value": "> 100", "unit": "µM"}
    ]}
  ]
}
